Test results published in patent publication US7612073B2, “Methods of administering tetrahydrobiopterin, associated compositions, and methods of measuring” (Biomarin Pharmaceutical Inc., priority 2007, dated 2009).

Experiment: stability of L-Biopterin in K2 EDTA human plasma (LC/MS/MS)
Format: in vitro ADME
Protocol: Published methods are based on the classical method developed by Fukushima and Nixon (Anal. Biochem., 102, 176-188 (1980)) using HPLC with fluorescence detection. In the LC/MS/MS method, the human plasma sample was stabilized with antioxidant, spiked with an internal standard (IS) solution and basified with sodium hydroxide solution, then oxidized with iodine solution. Upon incubation in dark at room temperature, ascorbic acid is added to reduce the excess iodine. Oxidized samples were extracted by protein precipitation. L-Biopterin in the reconstituted extracts was analyzed by using reversed-phase HPLC with Turbo Ion Spray® MS/MS detection. Negative ions for L-Biopterin were monitored in MRM mode. Drug-to-IS peak area ratios for the standards were used to create a linear calibration curve using 1/x^2 weighted least-squares regression analysis.
The oxidation conversion ratio of BH4 to L-Biopterin was evaluated at multiple time-points: 0, 1, 2, 4, 8, 12 and 23 weeks, and found consistent in all the tested time-points with a nominal molar conversion ratio of 47.3% determined from the first three consecutive time-points. The difference between the conversion ratio at other time-points and the nominal value ranges from −2.3 to 6.3%. The LC/MS/MS method was validated to quantify L-Biopterin in K2 EDTA human plasma in the linear calibration range of 5 to 1000 ng/mL (equivalent to 11 to 2114 ng/mL for BH4). […] The mean extraction recovery for L-Biopterin was 65.3%.

## L-Biopterin
  freeze thaw cycles after which stable: 4 freeze thaw cycles
  time stable at room temperature: at least 4 hours
  time stable at −70° C.: at least 275 days
